Laboratory results from ChEMBL document CHEMBL3638745, “Buprenophine analogs” (2013).
pKi: −log10 of the molar value. Where “and” joins values, the source holds several entries; their conditions need not be identical. Equal entries are not always repeated.

Sequences of proteins named here, by UniProt entry; tags and fusion partners are left off.
UniProt P35372, whole entry: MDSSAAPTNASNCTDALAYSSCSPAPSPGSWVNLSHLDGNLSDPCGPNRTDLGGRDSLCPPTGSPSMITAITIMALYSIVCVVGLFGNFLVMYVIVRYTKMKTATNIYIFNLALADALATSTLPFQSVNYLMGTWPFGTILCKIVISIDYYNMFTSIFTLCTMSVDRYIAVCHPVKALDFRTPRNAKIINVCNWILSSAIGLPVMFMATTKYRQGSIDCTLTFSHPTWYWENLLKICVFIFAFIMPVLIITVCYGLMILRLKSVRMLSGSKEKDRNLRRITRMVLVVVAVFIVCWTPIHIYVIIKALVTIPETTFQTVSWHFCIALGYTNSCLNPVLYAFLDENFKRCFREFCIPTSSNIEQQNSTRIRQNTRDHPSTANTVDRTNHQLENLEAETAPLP

The compounds below were run against Mu-type opioid receptor (Homo sapiens, UniProt P35372) (assay: Binding Assay: Binding assay of certain compounds of this invention to the opioid receptor was determine using radioligand binding assay (screening and dose-displacement).).
With COc1ccc2c3c1O[C@H]1[C@@]4(OC)CC[C@@]5(C[C@@H]4COCc4cccc(C)c4)[C@@H](C2)N(CC2CC2)CC[C@]315 the pKi was 8.92 and 9.82. With COc1ccc2c3c1O[C@H]1[C@@]4(OC)CC[C@@]5(C[C@@H]4COCc4ccc6ccccc6c4)[C@@H](C2)N(CC2CC2)CC[C@]315 the pKi was 9.13 and 8.73. COc1ccc2c3c1O[C@H]1[C@@]4(OC)CC[C@@]5(C[C@@H]4COCc4ccc(C(C)(C)C)cc4)[C@@H](C2)N(CC2CC2)CC[C@]315 was tested, and the pKi was 8.10 and 8.45. In the case of COc1ccc2c3c1O[C@H]1[C@@]4(OC)CC[C@@]5(C[C@@H]4COC/C=C/c4ccccc4)[C@@H](C2)N(CC2CC2)CC[C@]315, the pKi was 9.28 and 8.36.
